{"source": "patent US11255830B2", "key": {"TNT-responsive OR": {"tested_on": "TNT-responsive OR", "experiment": "cAMP-Glo assay on isolated olfactory cilia", "conditions": "15 minutes at 37° C.", "protocol": "The assay employed to test activation of TNT-responsive ORs takes advantage of the fact that ORs are G-protein coupled receptors (GPCRs) that couple with adenylate cyclase III. Activated adenylate cyclase produces cyclic AMP (cAMP), which then stimulates protein kinase A (PKA) activity, leading to a decrease in ATP levels. This decrease in ATP is measured using a luciferase reaction, using a commercially available assay, for example, the Promega cAMP-Glo™ Assay. In this assay, which can be adapted for a 384 well format, a lower level of ATP leads to decreased bioluminescence, indicating increased activity of the OR.\n100 ng of freshly-thawed cilia isolated from either (1) mice that preferentially express a TNT-responsive OR or (2) wild type mice is placed in triplicate wells and incubated with control (solvent alone) or odor (i.e., TNT) for 15 minutes at 37° C. All subsequent steps are performed as per manufacturer's instructions for the Promega cAMP-Glo™ Assay. Analysis for cilia activation by TNT is performed by calculating the difference in the bioluminescent readout (DRLU) between TNT-treated and untreated cilia for the cilia isolated from either (1) mice that preferentially express a TNT-responsive OR or (2) wild type mice."}, "Olfr297": {"tested_on": "Olfr297", "experiment": "TNT DREAM analysis on mice", "conditions": "mice n=7, TNT-exposed vs control, same protocol as rats; 0.03 p-value", "from_the_text": "To identify the odorant receptors that are activated by TNT, a technique called “DREAM” (i.e. Deorphanization of Receptors based on Expression Alterations of mRNA levels) was used, which takes advantage of the generalized reduction in odorant receptor mRNA concentration that occurs after specific OSN activation (von der Weid, B., Rossier, D., Lindup, M., Tuberosa, J., Widmer, A., Col, J. D., Kan, C., Carleton, A., and Rodriguez, I. (2015). Large-scale transcriptional profiling of chemosensory neurons identifies receptor-ligand pairs in vivo. Nat Neurosci 18, 1455-1463; see also US2017/0285009, both encorporated herein by reference). Rats, Rattus norvegicus, (n=8 in each group was calculated to be a sufficient sample sin using an alpha of 0.05, a power of 0.95, an effect size d of 1.8 in a one tailed Mann-Whitney U test) were exposed to vehicle control (BLANK) and “breather bags” containing 5% TNT, respectively. Breather bags were obtained from Signature Science, LLC and are commonly used to train Explosive Detection Dogs. After five hours of odor exposure, rats were sacrificed and mRNA was extracted out of the rat olfactory epithelial (OE) tissue using TRIzol® reagent. […]"}, "Olr710": {"tested_on": "Olr710", "experiment": "DREAM analysis: OR mRNA level in olfactory epithelium after TNT exposure (RNA-Seq, qPCR)", "conditions": "rats, breather bags containing 5% TNT, five hours of exposure; RNA-Seq and qPCR", "from_the_text": "(§1) To identify the odorant receptors that are activated by TNT, a technique called “DREAM” (i.e. Deorphanization of Receptors based on Expression Alterations of mRNA levels) was used, which takes advantage of the generalized reduction in odorant receptor mRNA concentration that occurs after specific OSN activation (von der Weid, B., Rossier, D., Lindup, M., Tuberosa, J., Widmer, A., Col, J. D., Kan, C., Carleton, A., and Rodriguez, I. (2015). Large-scale transcriptional profiling of chemosensory neurons identifies receptor-ligand pairs in vivo. Nat Neurosci 18, 1455-1463; see also US2017/0285009, both encorporated herein by reference). Rats, Rattus norvegicus, (n=8 in each group was calculated to be a sufficient sample sin using an alpha of 0.05, a power of 0.95, an effect size d of 1.8 in a one tailed Mann-Whitney U test) were exposed to vehicle control (BLANK) and “breather bags” containing 5% TNT, respectively. Breather bags were obtained from Signature Science, LLC and are commonly used to train Explosive Detection Dogs. After five hours of odor exposure, rats were sacrificed and mRNA was extracted out of the rat olfactory epithelial (OE) tissue using TRIzol® reagent. Subsequent deep sequencing of an olfactory cDNA library corresponding to each animal, allowed calculation of the fold difference in odorant receptor mRNA concentrations between the different groups using a threshold corresponding to genes located outside a 99% confidence interval of a fitted Gaussian distribution. […]\n(§2) In order to validate the identified TNT-responsive OR genes, the DREAM rat RNA was further analyzed by qPCR. […] The qPCR analysis shown in FIG. 4 illustrates the normalized relative Quantities (NRQ) for eight rats in each group (BLANK vs TNT).\n(§3) A comparison between the relative fold changes calculated using both qPCR (diamonds) and RNA-Seq analysis (circles) for the rat TNT-responsive ORs Olr710, Olr300, and Olr319 is shown in FIG. 6. […] Olfactory transcript levels were determined after five hours of TNT-exposure. […]"}, "Olr319": {"tested_on": "Olr319", "experiment": "DREAM analysis: OR mRNA level in olfactory epithelium after TNT exposure (RNA-Seq, qPCR)", "conditions": "rats, breather bags containing 5% TNT, five hours of exposure; RNA-Seq and qPCR", "from_the_text": "as §1, §2, §3"}, "Olr300": {"tested_on": "Olr300", "experiment": "DREAM analysis: OR mRNA level in olfactory epithelium after TNT exposure (RNA-Seq, qPCR)", "conditions": "rats, breather bags containing 5% TNT, five hours of exposure; RNA-Seq and qPCR", "from_the_text": "as §1, §2, §3"}}, "note": "Only a part of the results on these compounds is given; other tests are left out."}
{"smiles": "Cc1c([N+](=O)[O-])cc([N+](=O)[O-])cc1[N+](=O)[O-]", "values": [{"measurement": "activation of OR (decreased ATP levels, DRLU)", "setting": "TNT-responsive OR; cilia from mice that preferentially express a TNT-responsive OR", "result": "activated"}, {"measurement": "activation of ORs (ATP levels, DRLU)", "setting": "TNT-responsive OR; wild type cilia", "result": "neither TNT nor the odor control causes activation"}, {"measurement": "fold change of Olfr297 expression", "setting": "Olfr297", "result": 0.37, "unit": "fold"}, {"measurement": "expression of Olr710 upon exposure to TNT (TNT/Blank)", "setting": "Olr710", "result": "downregulated"}, {"measurement": "expression of Olr319 upon exposure to TNT (TNT/Blank)", "setting": "Olr319", "result": "downregulated"}, {"measurement": "expression of Olr300 upon exposure to TNT (TNT/Blank)", "setting": "Olr300", "result": "downregulated"}]}
